Assay results as given in patent publication US11702429B2, “mTORC modulators and uses thereof” (Aeovian Pharmaceuticals, Inc., priority 2019, dated 2023).

Key:
[1] = molecular target: mTORC1 (Homo sapiens, UniProt P42345+P62942); assay: Inhibition assay for mTORC1: phosphorylation of pS6K at Thr389, AlphaLISA in PC3 cells; type: cell-based
[2] = molecular target: mTORC2 (Homo sapiens, UniProt P42345+P62942); assay: Inhibition assay for mTORC2: phosphorylation of pAkt at Ser473, AlphaLISA in PC3 cells; type: cell-based
[3] = Rapamycin analogs substituted at C40, pS6K Thr389, PC3 cells, 24 hours treatment
[4] = Rapamycin analogs substituted at C40, pAkt Ser473, PC3 cells, 24 hours treatment
[5] = PC3 cells, treated 24 hours, pS6K Thr389, AlphaLISA, C16 diastereomer mixtures not separated
[6] = PC3 cells, treated 24 hours, pAkt Ser473, AlphaLISA, C16 diastereomer mixtures not separated

| pIC50 mTORC1 [1, 3] | pIC50 mTORC2 [2, 4] | pIC50 mTORC1 [1, 5] | pIC50 mTORC2 [2, 6] | SMILES |
| --- | --- | --- | --- | --- |
| A (pIC50 for mTORC1 of >9.5 as A) | C (greater than 6 as C) |  |  | COC1C[C@@H]2CC[C@@H](C)[C@@](O)(O2)C(=O)C(=O)N2CCCC[C@H]2C(=O)O[C@H]([C@H](C)C[C@@H]2CC[C@@H](OCCCN3CCC[C@@H](O)C3)[C@H](OC)C2)CC(=O)[C@H](C)/C=C(\C)[C@@H](O)[C@@H](OC)C(=O)[C@H](C)C[C@H](C)/C=C/C=C/C=C/1C (stereo partly shown) |
|  |  | A (pIC50 for mTORC1 of >9.5 as A) | B (5 to 6 as B) | CO[C@@H]1C[C@H](C[C@@H](C)[C@@H]2CC(=O)[C@H](C)/C=C(\C)[C@@H](O)[C@@H](OC)C(=O)[C@H](C)C[C@H](C)/C=C/C=C/C=C(\C)C(OCC3CCOCC3)C[C@@H]3CC[C@@H](C)[C@@](O)(O3)C(=O)C(=O)N3CCCC[C@H]3C(=O)O2)CC[C@H]1OCCCO (stereo partly shown) |
| A (pIC50 for mTORC1 of >9.5 as A) | C (greater than 6 as C) |  |  | COC1C[C@@H]2CC[C@@H](C)[C@@](O)(O2)C(=O)C(=O)N2CCCC[C@H]2C(=O)O[C@H]([C@H](C)C[C@@H]2CC[C@@H](OC(=O)NCCCc3ccccc3)[C@H](OC)C2)CC(=O)[C@H](C)/C=C(\C)[C@@H](O)[C@@H](OC)C(=O)[C@H](C)C[C@H](C)/C=C/C=C/C=C/1C (stereo partly shown) |
|  |  | A (pIC50 for mTORC1 of >9.5 as A) | C (greater than 6 as C) | CO[C@@H]1C[C@H](C[C@@H](C)[C@@H]2CC(=O)[C@H](C)/C=C(\C)[C@@H](O)[C@@H](OC)C(=O)[C@H](C)C[C@H](C)/C=C/C=C/C=C(\C)C(OCCc3ccccc3)C[C@@H]3CC[C@@H](C)[C@@](O)(O3)C(=O)C(=O)N3CCCC[C@H]3C(=O)O2)CC[C@H]1OC(=O)NCCOCCOCCOCCOCCO (stereo partly shown) |
|  |  | A (pIC50 for mTORC1 of >9.5 as A) | A (PIC50 for mTORC2 of <5 as A) | CO[C@@H]1C[C@H](C[C@@H](C)[C@@H]2CC(=O)[C@H](C)/C=C(\C)[C@@H](O)[C@@H](OC)C(=O)[C@H](C)C[C@H](C)/C=C/C=C/C=C(\C)C(OCCCO)C[C@@H]3CC[C@@H](C)[C@@](O)(O3)C(=O)C(=O)N3CCCC[C@H]3C(=O)O2)CC[C@H]1OCCCO (stereo partly shown) |
| A (pIC50 for mTORC1 of >9.5 as A) | C (greater than 6 as C) |  |  | COC1C[C@@H]2CC[C@@H](C)[C@@](O)(O2)C(=O)C(=O)N2CCCC[C@H]2C(=O)O[C@H]([C@H](C)C[C@@H]2CC[C@@H](OCCOCCOCCOCCO)[C@H](OC)C2)CC(=O)[C@H](C)/C=C(\C)[C@@H](O)[C@@H](OC)C(=O)[C@H](C)C[C@H](C)/C=C/C=C/C=C/1C (stereo partly shown) |
|  |  | B (8.5 to 9.5 as B) | A (PIC50 for mTORC2 of <5 as A) | CO[C@@H]1C[C@H](C[C@@H](C)[C@@H]2CC(=O)[C@H](C)/C=C(\C)[C@@H](O)[C@@H](OC)C(=O)[C@H](C)C[C@H](C)/C=C/C=C/C=C(\C)C(OC[C@@H](C)O)C[C@@H]3CC[C@@H](C)[C@@](O)(O3)C(=O)C(=O)N3CCCC[C@H]3C(=O)O2)CC[C@H]1OCCCO (stereo partly shown) |

| SMILES | pIC50 mTORC1 [1, 3] | pIC50 mTORC2 [2, 4] | pIC50 mTORC1 [1, 5] | pIC50 mTORC2 [2, 6] |
| --- | --- | --- | --- | --- |
| COC1CC2CCC(C)C(O)(O2)C(=O)C(=O)N2CCCCC2C(=O)OC(C(C)CC2CCC(OC(=O)C(C)(CO)CO)C(OC)C2)CC(=O)C(C)C=C(C)C(O)C(OC)C(=O)C(C)CC(C)C=CC=CC=C1C (stereo not shown) | A (pIC50 for mTORC1 of >9.5 as A) | C (greater than 6 as C) |  |  |
